Like-named read-outs stand apart in the source and are kept apart here.
Tests used:
cortical spinal tract = system: cortical spinal tract
Excerpt: The animals were anesthetized using spontaneous inhalation of 4% isoflurane for induction, followed by a mixture of 1.5% isoflurane, 30% oxygen, and air delivered through a nose mask. The rat's head was stabilized on a Plexigas holder and positioned into a 6 cm inner diameter volume coil for MRI scanning on a 9.4 T horizontal Varian scanner (Varian Inc., Palo Alto, Calif.). While in the scanner, the physiological condition of the rat was monitored using ECG, respiratory and temperature probes that were connected to an MR-compatible small animal monitoring and gating system (Model 1025, SA Instruments, Inc., Stony Brook, N.Y.). The rat's temperature was kept at about 37° C. by circulating warm air with 40% humidity using a 5 cm diameter plastic tube fitted to the back door of the magnet bore.

[1] = system: cortical, subcortical and descending corticofugal pathways; conditions: cited from earlier work

Substance: manganese chloride
- overall transport rate of manganese in cortical spinal tract (cortical spinal tract; 5 cm/12 hr, injection site to thoracic spinal cord, with electrical stimulation): ~4 mm/h
- time of signal enhancement in the cortical spinal tract of the thoracic spinal cord (cortical spinal tract; after manganese injection and electrical stimulation): about 12 hours
- axoplasmic transport rate ([1]; cortical and subcortical regions): 2.1-2.6 mm/h
- axoplasmic transport rate ([1]; descending corticofugal pathways (between the internal capsule and the pyramidal decussation)): 4.6-6.1 mm/h

From patent US20080081021A1, “Manganese-enhanced magnetic resonance imaging of neurons using electrical stimulation” (priority 2006, published 2008)
